Our source for the Ki and EC50 values is US8067447B2, “Modulators of glucocorticoid receptor, AP-1, and/or NF-κB activity and use thereof” (Bristol-Myers Squibb Company, priority 2006, dated 2011).

Sequences of proteins named here, by UniProt entry; tags and fusion partners are left off.
UniProt P04150, whole entry: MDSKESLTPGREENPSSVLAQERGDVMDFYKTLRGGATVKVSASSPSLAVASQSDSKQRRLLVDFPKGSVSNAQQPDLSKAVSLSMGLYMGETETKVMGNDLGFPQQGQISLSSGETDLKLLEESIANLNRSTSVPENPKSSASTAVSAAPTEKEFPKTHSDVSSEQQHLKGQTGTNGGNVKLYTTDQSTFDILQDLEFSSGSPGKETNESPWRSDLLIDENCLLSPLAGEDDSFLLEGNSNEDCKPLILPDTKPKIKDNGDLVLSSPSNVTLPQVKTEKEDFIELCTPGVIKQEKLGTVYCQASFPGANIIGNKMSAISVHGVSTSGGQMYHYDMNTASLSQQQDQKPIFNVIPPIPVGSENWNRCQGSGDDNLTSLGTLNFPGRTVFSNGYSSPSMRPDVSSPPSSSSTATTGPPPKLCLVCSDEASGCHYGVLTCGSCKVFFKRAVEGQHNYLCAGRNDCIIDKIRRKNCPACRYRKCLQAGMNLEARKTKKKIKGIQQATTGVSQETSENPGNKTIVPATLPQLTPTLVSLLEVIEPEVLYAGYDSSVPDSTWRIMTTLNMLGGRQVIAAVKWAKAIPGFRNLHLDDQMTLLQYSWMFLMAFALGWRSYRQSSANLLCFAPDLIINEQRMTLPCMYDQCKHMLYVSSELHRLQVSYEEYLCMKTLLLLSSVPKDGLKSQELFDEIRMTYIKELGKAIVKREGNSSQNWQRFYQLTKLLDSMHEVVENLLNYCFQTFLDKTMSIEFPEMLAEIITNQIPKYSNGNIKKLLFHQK

Assay [1] concerns the target human glucocorticoid receptor (Homo sapiens, UniProt P04150). The experiment in a line: Glucocorticoid Receptor Binding Assay (I), fluorescence polarization competitor kit (Fluormone GS Red). To be noted: read-out: GR (Ki, nM) (GR Binding Assay (I)); purified human recombinant full-length GR 2 nM, 1 nM Fluormone GS Red, FP. A general note: Polarisation of emitted light reports the rotation of a fluorescent probe.

The test system of assay [2] is AP-1 induced transcriptional activity. Briefly: Cellular Transrepressional Assay (AP-1 luciferase reporter in A549 cells, PMA-activated). It counts as cell-based. To be noted: read-out: AP-1 (EC50, nM) (Cellular Transrepression Assay); A549 cells with 7x AP-1 luciferase reporter, 10 ng/ml PMA, 7 hours. Here is the method: To measure the ability of test molecules to inhibit AP-1 induced transcriptional activity an A549 cell was utilized which was stably transfected with a plasmid containing 7× AP-1 DNA binding sites (pAP-1-Luc plasmid, Stratagene Co. La Jolla, Calif.) followed by the gene for luciferase. Cells were activated with 10 ng/ml of […] (PMA) plus or minus test molecules for 7 hours. After 7 hours a luciferase reagent was added to measure luciferase enzymatic activity in the cell. After a 10 minute incubation of luciferase reagent with cells, luminescence was measured in a TopCount luminescence counter. Repression of AP-1 activity was calculated as the percentage decrease in the signal induced by PMA alone. Test molecules were analyzed in the concentration range from 0.1 nM to 40 μM. EC50s were determined by using standard curve fitting methods such as Excel fit (Microsoft Co.).
For orientation: Reporter assays use an easily measured gene product as a stand-in for the process of interest.

Assay [3] concerns the target human full-length glucocorticoid receptor (Homo sapiens, UniProt P04150). The experiment in a line: Glucocorticoid Receptor Binding Assay (II), fluorescence polarization competitor kit (Fluormone GS1). To be noted: read-out: GR (Ki, nM) (GR Binding Assay (II)); cell lysate with recombinant human full-length GR, 1 nM Fluormone GS1, FP.

Structures are written as SMILES.

For `CCCCn1ncc2cc(C(c3ccccc3)C(C)(C)C(=O)Nc3nncs3)ccc21` (single isomer, unassigned) [68-enant B], the Ki (in general, the dissociation constant of the complex between target and ligand, obtained from inhibition or displacement) in assay [1] stood at 32 nM. In assay [2], the half-maximal effective concentration (EC50) (commonly the concentration at which the effect is half-maximal) stood at 7710 nM. Regarding `CCCCn1ncc2cc(C(c3ccccc3)C(C)(C)C(=O)Nc3nncs3)ccc21` (single isomer, unassigned) [68-enant A], the inhibition constant (Ki) in assay [1] turned out to be 6.1 nM. Also, the concentration for a half-maximal effect (EC50) in assay [2] stood at 192 nM.

With `C=C(C)CC(c1ccc2c(cnn2-c2ccc(F)cc2)c1)C(C)(C)C(=O)Nc1nncs1` (single isomer, unassigned) [54-enant B], the Ki in assay [3] stood at 0.9 nM. Further, the concentration giving a half-maximal response (EC50) in assay [2] came to 3.2 nM. Regarding `CC(C)(C(=O)Nc1nccs1)[C@H](c1ccccc1)c1ccc2c(cnn2-c2ccc(F)cc2)c1`, the EC50 in assay [2] was determined as 400 nM. For `CC(C)(C(=O)Nc1nccs1)C(c1ccc2c(cnn2-c2ccc(F)cc2)c1)C1CCCCC1` (single isomer, unassigned) [38-enant B], in assay [1], the inhibition constant (Ki) worked out at 14 nM. Further, the half-maximal effective concentration (EC50) in assay [2] was over 10000 nM. Take `C=C(C)CC(c1ccc2c(cnn2-c2ccc(F)cc2)c1)C(C)(C)C(=O)Nc1nncs1` (single isomer, unassigned) [54-enant A]: the inhibition constant (Ki) in assay [3] was 1.2 nM. Besides, the half-maximal effective concentration (EC50) in assay [2] was 5.8 nM. With `CC(C)(C(=O)Nc1nncs1)[C@@H](c1ccccc1)c1ccc2[nH]ncc2c1`, the inhibition constant Ki in assay [3] was 0.54 nM. `CC(C)(C(=O)Nc1nccs1)C(c1ccc2c(cnn2-c2ccc(F)cc2)c1)C1CCCCC1` (single isomer, unassigned) [38-enant A]: in assay [1], the Ki was 15 nM. For the same compound, the EC50 in assay [2] amounted to 12 nM. Taken in the same sequence, the figures for `CC(C)CC(c1ccc2c(cnn2-c2ccc(F)cc2)c1)C(C)(C)C(=O)Nc1nccs1` (single isomer, unassigned) [33-enant B] were 13 nM and 11 nM.

`CC(C)CC(c1ccc2c(cnn2-c2ccc(F)cc2)c1)C(C)(C)C(=O)Nc1nccs1` (single isomer, unassigned) [33-enant A]: the Ki in assay [1] came to 18 nM. Moreover, the concentration giving a half-maximal response (EC50) in assay [2] is over 10000 nM.

Turning to `CC(C)CCn1ncc2cc(C(c3ccccc3)C(C)(C)C(=O)Nc3nncs3)ccc21` (single isomer, unassigned) [66-enant B], the Ki in assay [1] stood at 16 nM. For the same compound, the EC50 in assay [2] came to 1700 nM. In the case of `CC(C)CCn1ncc2cc(C(c3ccccc3)C(C)(C)C(=O)Nc3nncs3)ccc21` (single isomer, unassigned) [66-enant A], the EC50 in assay [2] is 62 nM. For the compound `CC(C)(C(=O)Nc1nncs1)C(c1ccccc1)c1ccc2c(cnn2-c2cccnc2)c1` (single isomer, unassigned) [86-enant A], the Ki in assay [1] stood at 3.7 nM. Further, the half-maximal effective concentration (EC50) in assay [2] is 95 nM. Regarding `CC(C)(C(=O)Nc1nccs1)[C@@H](c1ccccc1)c1ccc2c(cnn2-c2ccc(F)cc2)c1`, the concentration for a half-maximal effect (EC50) in assay [2] stood at 0.81 nM. In the case of `CC(C)(C(=O)Nc1nncs1)C(c1ccccc1)c1ccc2c(cnn2-c2cccnc2)c1` (single isomer, unassigned) [86-enant B], in assay [2], the EC50 is over 10000 nM. Consider `CC(C)(C(=O)Nc1nncs1)[C@H](c1ccccc1)c1ccc2[nH]ncc2c1`, for which the EC50 in assay [2] was determined as 701 nM.
